Data as given in patent US7678762B2, “Methods for reducing the risk of hypoglycemia” (DiObex, Inc., priority 2002, dated 2010).

What was measured:
[1] = Continuous subcutaneous very low dose glucagon infusion in insulin-treated patients: glucagon and glucose blood levels (Example 7); details: human, in vivo, sc
[2] = system: patients with Type 1 diabetes; assay: as above
[3] = subcutaneous glucagon; cited from earlier work

Cmax ([1]; 12 ng/kg/min): 0.185 ng/mL
Tmax ([1]; 16 ng/kg/min): ≤ 3 h
change of blood glucagon levels ([2]; 8 ng/kg/min. s.c. continuous infusion): approximately doubling
peak mean plasma glucagon level ([2]; 16 ng/kg/min. s.c. for 9 hours, two patients): about 254 pg/mL
peak plasma glucagon levels compared with the 12 ng/kg/min. dose ([2]; 16 ng/kg/min. s.c., both subjects): higher
Structure (SMILES): CSCC[C@H](NC(=O)[C@H](CC(C)C)NC(=O)[C@H](Cc1c[nH]c2ccccc12)NC(=O)[C@H](CCC(N)=O)NC(=O)[C@@H](NC(=O)[C@H](Cc1ccccc1)NC(=O)[C@H](CC(=O)O)NC(=O)[C@H](CCC(N)=O)NC(=O)[C@H](C)NC(=O)[C@H](CCCN=C(N)N)NC(=O)[C@H](CCCN=C(N)N)NC(=O)[C@H](CO)NC(=O)[C@H](CC(=O)O)NC(=O)[C@H](CC(C)C)NC(=O)[C@H](Cc1ccc(O)cc1)NC(=O)[C@H](CCCCN)NC(=O)[C@H](CO)NC(=O)[C@H](Cc1ccc(O)cc1)NC(=O)[C@H](CC(=O)O)NC(=O)[C@H](CO)NC(=O)[C@@H](NC(=O)[C@H](Cc1ccccc1)NC(=O)[C@@H](NC(=O)CNC(=O)[C@H](CCC(N)=O)NC(=O)[C@H](CO)NC(=O)[C@@H](N)Cc1c[nH]cn1)[C@@H](C)O)[C@@H](C)O)C(C)C)C(=O)N[C@@H](CC(N)=O)C(=O)N[C@H](C(=O)O)[C@@H](C)O [glucagon]
time to peak levels [3]: 15 to 30 min
